Reference: US20040132715A1, “Method to treat allergic rhinitis” (priority 2002, published 2004)

Test system: Zymosan Induced Peritonitis in Mice
Experiment: Zymosan induced peritonitis in mice (PMN influx into peritoneal cavity)
Assay type: in vivo
Details: s.c. at -15 min and +2 h (Compound 1 10 mg/kg; Imetit, Thioperamide 5 mg/kg), 1 mg zymosan A i.p., lavage at 4 h
Experimental: This is commonly used to induce peritonitis in mice and appears to act in a mast cell dependent manner. Male out-bred Swiss albino mice were purchased from Bantin and Kingman (T.O. strain; Hull, Humberside) and maintained on a standard chow pellet diet with tap water ad libitum and a 12:00 h light /dark cycle. All animals were housed for at least 3 days prior to experimentation to allow body weight to reach ˜30 g on the day of the experiment. […] Animals were briefly (30-60 s) anesthetized with halothane for all s.c. and i.p. treatments described below. Drugs were stored at room temperature, in the dark. On the day of the experiment, drugs were dissolved in sterile PBS as depicted below, and generously vortexed. The compound from Chemical Example 1 was prepared at 10 mg/5 mL, and injected at 5 mL/kg. […] Time −15 min: Compounds or PBS administered s.c. at the reported doses. Time 0: At time 0, mice received 1 mg zymosan A (Sigma) i.p. Time +2 h: Compounds or PBS administered s.c. at the reported doses. […] Peritoneal cavities were washed 4 h later with 3 mL of PBS containing 3 mM EDTA, and the number of migrated leukocytes determined, by taking an aliquot (100 μL) of the lavage fluid and diluting 1:10 in Turk's solution (0.01% crystal violet in 3% acetic acid). […] Statistical differences were determined by Anova followed by Bonferroni's post-hoc test.

SMILES: N=C(N)SCCc1cnc[nH]1 [Imetit]
- PMN (10^6 per mouse), single mice: 19.8 10^6 per mouse and 17.1 10^6 per mouse and 14.1 10^6 per mouse (2×) and 15.3 10^6 per mouse and 21.3 10^6 per mouse and 17.7 10^6 per mouse and 18.6 10^6 per mouse

Values joined by “and” are separate entries in the source; they are usually repeats but may differ in a detail not shown here. Identical values can stand only once.
